According to the RepoRT retention time repository (doi:10.1021/acs.analchem.1c00972):

Experiment: RP, Waters ACQUITY UPLC BEH C18, 100 × 1 mm, 1.7 µm, 50 °C, 0.3 mL/min, estimated dead time 0.17 min; A: water + 0.1% formic acid + 20 mM ammonium formate; B: methanol + 0.1% formic acid + 20 mM ammonium formate; gradient (min/%B) 0/0 15/100 21/100 22/0 30/0
Conditions: stereoisomer not certain

COc1ccc(CO)cc1 [4-Methoxybenzyl alcohol]
LC retention time: 8 min
